The values below are quoted from earlier work in patent publication US4745109A, “Suicide inhibitors of aromatase” (Washington Research Foundation, priority 1984, dated 1988).

The subject of the series is aromatase. The following applies: cited from earlier work.

Turning to `CCC1(c2ccc(N)cc2)CCC(=O)NC1=O` (stereo not shown) [aminoglutethimide], the specificity to aromatase result is “not specific to aromatase”.
